A word on the IC50: it is the concentration that inhibits the measured activity by half. What is called Ki is a measure of affinity in units of concentration, obtained from inhibition or displacement.

Protein sequences, listed by entry. Tags and fused reporters are not part of them. Lines headed by an entry give the natural chain unless they say otherwise; changes in a name come on top.
UniProt P01210: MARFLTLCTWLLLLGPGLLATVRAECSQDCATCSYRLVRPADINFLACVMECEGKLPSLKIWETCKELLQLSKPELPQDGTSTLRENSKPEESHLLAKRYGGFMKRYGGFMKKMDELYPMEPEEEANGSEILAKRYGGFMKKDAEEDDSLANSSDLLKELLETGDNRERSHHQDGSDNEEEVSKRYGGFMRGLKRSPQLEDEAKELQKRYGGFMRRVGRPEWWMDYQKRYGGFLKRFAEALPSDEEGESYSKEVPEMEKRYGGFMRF

This note sets out measurements from patent US20030211537A1 (ARCH DEVELOPMENT, published 2003).

Experiment [1] concerns the target T1, mouse delta opioid receptor (mORD1) (mouse, UniProt P32300 1-372).
T1 construct: Assayed in membranes of transfected COS-1, CHO-DG44 or COS-7 cells; also called msl-2; δ receptor
The experiment is described as follows: competition vs [3H]naltrindole, COS-1 membranes.

Experiment [2] concerns the target T2, rat µ opioid receptor (rat, UniProt P33535 1-398).
T2 construct: whole, on cells; Assayed in membranes of transfected COS-7 cells; also called cloned µ receptor; rat µ receptor
The experiment is described as follows: competition vs [3H]DAMGO, COS-7 membranes.

The target in experiment [3] is T3, cloned human µ opioid receptor (human, UniProt P35372 1-400). Put plainly: competition vs [3H]DAMGO, COS-7 membranes.
Experiment [4] addresses T3, cloned human µ opioid receptor. The experiment is described as follows: competition vs [3H]DAMGO, COS-7 membranes. This is another data set of the same source.
In experiment [5] the target is T4, H278N mutant mouse delta opioid receptor (mouse, UniProt P32300 1-372).
T4 construct: Expressed in COS-7 cells, membranes assayed
Put plainly: competition vs 3H-naltrindole, COS-7 membranes.

For experiment [6], the target named is T1, mouse delta opioid receptor (mORD1). Put plainly: competition vs 3H-naltrindole, COS-7 membranes.
Experiment [7] addresses T5, D128N mutant mouse delta opioid receptor (mouse, UniProt P32300 1-372).
T5 construct: Expressed in COS-7 cells, membranes assayed; also called D128 mutant
The experiment is described as follows: competition vs 3H-naltrindole, COS-7 membranes.

Read-outs that look alike come from different tables or passages of the source.

B1: Met-enkephalin (peptide, UniProt P01210 100-104, looked up)
peptide: YGGFM
notes: domain: Met-enkephalin
Turning to B1, the IC50 in experiment [1] is 41 nM.

B2: β-Endorphin (human) (peptide, UniProt P01189 237-267, looked up)
peptide: YGGFMTSEKSQTPLVTLFKNAIIKNAYKKGE
modifications: 125I-labelled where used as radioligand
notes: domain: β-Endorphin; also called beta-endorphin
As for B2, the Ki worked out at 1.7 nM in experiment [2]; 0.94 nM in experiment [3]; 0.94 nM in experiment [4]; 8.1 nM in experiment [5]; 26 nM in experiment [6]; 15800 nM in experiment [7]. In addition, in experiment [1], the IC50 was found to be 15.3 nM.
